Reference: patent US20140221639A1, “RADIOLABELED NUCLEOSIDE ANALOGUE, AND PREPARATION METHOD AND USE THEREOF” (Institute of Nuclear Energy Research Atomic Energy Council, …, priority 2011, published 2014)

System: NG4TL4-WT tumor
Experiment: Biodistribution study in tumor-bearing mice
Type: in vivo
Settings: 80~90 μCi tail vein, FVB/N mice with NG4TL4-WT tumor
Description: […] Tumor and 13 other tissures (blood, heart, lung, liver, stomach, small intestine, large intestine, spleen, pancreas, kidney, bone, marrow, and muscle) were removed, rinsed, weighed, and determined for radioactivity with a γ scintilation counter. Uptake of the radioactive trancers in the tissues (counts per min) was calibrated against decay, normalizedto sample weight, and expressed as percentages of injected dosage per gram of tissue (% ID/g) and aggregation ratio of tumor to blood.

O=c1[nH]c(=O)n([C@H]2C[C@H](O)[C@@H](CO)O2)cc1[131I] [^131I-IUdR, 5-[^124/131I]iodo-2′-deoxyuridine]
Biodistribution Brain (5 min): 1.51 ± 0.0S | T/B (aggregation ratio of tumor to blood) (5 min): 0.47 | T/M (tumor-muscle aggregation ratio) (5 min): 1.67 | Biodistribution Brain (30 min): 0.50 ± 0.12 % ID/g | T/B (aggregation ratio of tumor to blood) (30 min): 0.73 | T/M (tumor-muscle aggregation ratio) (30 min): 4.21 | Biodistribution Brain (1 h): 0.34 ± 0.07 % ID/g | T/B (aggregation ratio of tumor to blood) (1 h): 1.03 | T/M (tumor-muscle aggregation ratio) (1 h): 4.97 | Biodistribution Brain (2 h): 0.17 ± 0.02 % ID/g | T/B (aggregation ratio of tumor to blood) (2 h): 134 | T/M (tumor-muscle aggregation ratio) (2 h): 6.06 | Biodistribution Brain (4 h): 0.13 ± 0.06 % ID/g | T/B (aggregation ratio of tumor to blood) (4 h): 2.03 | T/M (tumor-muscle aggregation ratio) (4 h): 7.49 | Biodistribution Brain (8 h): 0.03 ± 0.01 % ID/g | T/B (aggregation ratio of tumor to blood) (8 h): 5.17 | T/M (tumor-muscle aggregation ratio) (8 h): 19.91
